In this data set the test system is HepaRG cells. Kind of data set: MTT cell viability assay. Format: cell-based, human. The conditions noted are these: 4 μM CsA, protocol Fig. 1A, Fig. S1A.

As to cyclosporin A [CsA], the “Cytotoxicity (cell viability, MTT)” value is listed as “without causing cytotoxicity”.

(Values after PMC4265264 (Hepatology (Baltimore, Md.), 2014).)
